Apparent affinities of Ab-14 variants for a coronavirus HR2 peptide

From the AlphaSeq antibody data of Li et al. 2023 (doi:10.1038/s41467-023-39022-2), copy in the FLAb collection.

The target is the same throughout: PDVDLGDISGINAS, from the HR2 region of SARS-CoV-2 spike.

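Designed CDR sequences, proposed from the first random library and measured here. Their group label is 14L_GP_Gibbs (GP: Gaussian process model; Gibbs: Gibbs sampling; a sequence that several methods proposed may carry one label only). AlphaSeq pools MATa yeast showing the antibodies with MATalpha yeast showing the peptide. The frequency of each diploid, read from paired DNA barcodes, reflects how well the two displayed proteins bind. A regression on co-assayed BCL2-family reference pairs converts the normalised counts of each replicate to an apparent Kd. There are six technical replicates.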

Ab-14 is the parent antibody, in scFv form: VH, then the linker GGGGSGGGGSGGGGS, then VL. The heavy chain is unchanged in all variants.
VH: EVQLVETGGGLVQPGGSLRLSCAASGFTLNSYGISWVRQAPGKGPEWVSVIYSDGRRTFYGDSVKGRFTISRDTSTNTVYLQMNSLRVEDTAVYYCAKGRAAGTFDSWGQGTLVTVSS
VL: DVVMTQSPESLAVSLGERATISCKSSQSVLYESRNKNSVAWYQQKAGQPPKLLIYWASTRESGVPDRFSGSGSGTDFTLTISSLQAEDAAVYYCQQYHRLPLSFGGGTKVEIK

The parent's light chain CDRs are KSSQSVLYESRNKNSVA, WASTRES, QQYHRLPLS; each variant's own CDRs replace them letter for letter. The read-out is the apparent dissociation constant on a log10 scale (nM): the lower, the stronger. "n.d." means that the variant was in the library but no mating with the target was seen in that replicate; the authors take this as a sign of poor binding, and no number exists. In the paper, a design with two or fewer of six values counts as a poor binder.

CDR-L1	CDR-L2	CDR-L3	log10 Kd, replicates	control signals
KLEQSDLYESRNKQSVA	NASERER	QQYHRLPLS	0.41 / 0.58 / 0.19 / 0.20 / 0.65 / 0.34	0/18
KLSQSWLYLSRNHNAVA	EASQRLS	QDYHRLPLS	0.08 / -0.20 / -0.08 / -0.18 / -0.01 / -0.04	1/18 (1.89)
KSSCSVDYEDRNSNSVA	NASTREW	QQYHRLPLS	0.72 / 0.47 / 0.42 / 0.44 / 0.40 / 0.66	2/18 (3.91)
KLMPSWEYESRNKNSVA	EASTRES	QQYHRLPLS	0.69 / 0.99 / n.d. / 0.01 / 1.04 / n.d.	0/18
KLQQQEQYESRNKNSVA	NASDRQS	QQYHRLPLS	0.55 / 0.53 / 0.32 / 0.43 / 0.30 / 0.66	1/18 (2.30)
KLQQSMLYESRWHNSVA	AASVRCD	QQYHRLPLS	1.30 / 1.59 / 1.22 / 1.39 / 1.62 / 1.40	0/18
KMSQSVWYEERNKNSVA	NASKRES	QQYHRLPLS	0.51 / 0.55 / 0.32 / 0.25 / 0.27 / 0.48	1/18 (2.76)
KISQSVGYESRNKNSIA	NANQREQ	QQYHRLPLS	0.02 / -0.07 / -0.20 / -0.26 / -0.14 / 0.02	0/18
KSSQVVGMESRNSNSVA	DASTRES	QQYHRLPLS	0.12 / 0.39 / -0.36 / 0.31 / 0.01 / 0.39	3/18 (2.38)
KIEGSMLYEDRNKNSVA	NASQREV	QAYHRLPLS	0.46 / -0.09 / -0.22 / -0.36 / -0.21 / -0.19	0/18
KMQQSKLMESRNVNSVA	HASLRLE	QQYHRLPLS	0.48 / 0.67 / 1.05 / 0.73 / 0.83 / 0.75	0/18
KLSQSVLYQMGQKNSVA	QASTRMS	QQYHRLPLS	1.36 / 0.33 / n.d. / 0.76 / 0.73 / 1.04	0/18
KLVESVLYESRNSNSVA	NASYREE	QQYHRLPLS	0.30 / 0.05 / -0.01 / -0.13 / -0.16 / 0.27	2/18 (2.62)
KQQQLGLGEERNFNSVA	HASTRIS	QQYHRLPLS	1.04 / 0.74 / 0.95 / 0.97 / 0.50 / 1.19	0/18
KQSFSGGGGSRNKNSVA	EASTRES	QQYHRLPLS	0.40 / 0.56 / 0.69 / 0.28 / 0.69 / 0.52	0/18
KVVQSHDYEQRNKNSVA	HASTRCS	QQYHRLPLS	0.11 / 0.00 / 0.42 / -0.05 / 0.34 / 0.38	0/18
KMSMSVLYEDRHQNSVA	NASTRLM	QQYHRLPLS	0.18 / 0.12 / 0.36 / 0.14 / 0.14 / 0.12	0/18
KLSQEWLMESRNKNQVA	HASTRMS	QQYHRLPLS	0.23 / 0.46 / 0.43 / 0.30 / 0.54 / 0.45	3/18 (2.51)
KLMNSMLYESRNVNSVA	HASRRES	QQYHRLPLS	0.38 / 0.25 / 0.14 / 0.28 / 0.32 / 0.27	1/18 (2.05)
KSSGSVEMLSRNVNSVA	EASTRES	QQYHRLPLS	0.39 / 0.08 / 0.10 / 0.12 / 0.40 / 0.37	1/18 (2.30)
KLHQSVGYESRNKNSVA	GGSQRES	QQYHRLPLS	0.16 / -0.33 / -0.06 / -0.16 / -0.17 / 0.20	1/18 (3.83)
KLSQSQEYESRNKNSVA	NASTRLT	QQYHRLPLE	-0.11 / -0.28 / -0.11 / -0.41 / -0.34 / -0.12	1/18 (2.80)
KLEQGFLYEERNKNSVA	HASQRES	QQYHRLPLS	-0.21 / -0.15 / -0.36 / -0.47 / -0.45 / -0.17	1/18 (4.46)
KLDNWQLGESRNKNSVA	SASTRCS	QQYHRLPLS	0.37 / 0.31 / -0.12 / -0.05 / 0.14 / 0.21	1/18 (1.81)
KSSPSQLYEDRMFNSVA	NASYRES	QQYHRLPLS	0.63 / 0.67 / 0.37 / 0.67 / 0.55 / 0.36	0/18
KQSQSQGGMQRNKNSVA	EASTREM	QQYHRLPLS	0.28 / 0.30 / 0.03 / -0.08 / -0.01 / 0.19	2/18 (2.55)
KLSNSVWMESRMKNQVA	EASTREM	QQYHRLPLS	0.26 / 0.02 / -0.15 / -0.10 / -0.03 / 0.10	1/18 (3.17)
KVQMLWCMWSRNLNSVA	HASTRES	QQYHRLPLS	n.d. / 2.30 / n.d. / 3.02 / 1.37 / n.d.	0/18
KLQQSVDYESRNKNSVA	NASTRED	QQYHQLPLS	0.07 / 0.13 / -0.10 / -0.10 / 0.04 / 0.16	2/18 (3.30)
KLSMLHDYESRNKNSVA	QASTREW	QQYHRLPLS	0.56 / 0.54 / 0.55 / 0.36 / 0.45 / 0.54	3/18 (3.47)
KLVQSNLYESRNTNSVA	NASQRLQ	QQYHRLPLS	0.49 / 0.42 / 0.50 / 0.47 / 0.47 / 0.44	2/18 (2.62)
KLMPSWEYESRNKNSVA	EASVRES	QQYHRLPLS	0.02 / 0.10 / -0.04 / -0.11 / -0.05 / 0.35	4/18 (2.79)

Of ten entries with the parent sequence, four were seen in most replicates (averages 0.34 to 2.37), three in one and three in none, so single entries are noisy. Nonspecific signal, from three strains lacking the peptide, appeared in 4% of pairings of all light chain designs, centred on 2.64 (5% of these signals below 1.59); values are not corrected for it. Also given: how often the same scFv was detected with the empty control strains, with their mean in brackets. Values of this round are not directly comparable with the first-round values of the same sequences.